The text below walks through data of patent publication US20060293223A1 (Eli Lilly and Company Patent Division, priority 2003, published 2006).

Chains of the proteins cited; added tags and fusions are not shown. Lines headed by an entry give the natural chain unless they say otherwise; changes in a name come on top.
UniProt P41968: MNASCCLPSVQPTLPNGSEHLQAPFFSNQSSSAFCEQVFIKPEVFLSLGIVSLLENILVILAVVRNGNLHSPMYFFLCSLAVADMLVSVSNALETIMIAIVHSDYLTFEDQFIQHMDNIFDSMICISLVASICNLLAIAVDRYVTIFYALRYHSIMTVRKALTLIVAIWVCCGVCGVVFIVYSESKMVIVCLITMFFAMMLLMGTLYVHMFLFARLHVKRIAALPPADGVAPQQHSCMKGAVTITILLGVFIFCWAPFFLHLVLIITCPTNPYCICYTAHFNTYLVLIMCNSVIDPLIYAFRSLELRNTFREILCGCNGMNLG
UniProt P32245, whole entry: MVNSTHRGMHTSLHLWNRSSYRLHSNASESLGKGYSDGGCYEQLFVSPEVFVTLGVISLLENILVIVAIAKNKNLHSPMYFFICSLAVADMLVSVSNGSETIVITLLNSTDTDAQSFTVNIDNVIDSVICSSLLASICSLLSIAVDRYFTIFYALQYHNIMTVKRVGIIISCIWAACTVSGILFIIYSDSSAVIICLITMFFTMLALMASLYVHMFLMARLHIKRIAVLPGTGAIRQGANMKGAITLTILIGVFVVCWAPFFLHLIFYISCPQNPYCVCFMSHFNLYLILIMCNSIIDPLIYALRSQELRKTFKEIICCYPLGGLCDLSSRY

pKi: −log10 of the molar value.

One test has as its target human MC3R (Homo sapiens, UniProt P41968). Description: Melanocortin receptor whole cell cAMP accumulation assay, MC3 (Table 2, MC3 Potency, printed as Ki). In kind it is cell-based. To be noted: HEK 293 cells.
The pKi is the negative decadic logarithm of the Ki, by convention in mol/L. Consider “Ac-nLeu-cyclo[hCys-His-D-Phe-Arg-Trp-penicillamine]-NH2 [Compound 177]”, for which the pKi is 8.91.
Still for that read-out and setting: the same measure for “Ac-diaminobutyryl-cyclo[Cys-Glu-His-D-Phe-Arg-Trp-Cys]-NH2 [Compound 44]”: 6.97; for “4-phenylbutyryl-cyclo[hCys-His-D-Phe-Arg-Trp-penicillamine]-NH2 [Compound 174]”: 8.31.
Still for that read-out and setting: with “Ac-diaminopropionyl-cyclo[Cys-Glu-His-D-Phe-Arg-Trp-Cys]-NH2 [Compound 43]” the figure was 6.80.
As to “Ac-Arg-cyclo[Cys-Glu-(1-Me-His)-(4-Cl-D-Phe)-Arg-Trp-Cys]-NH2 [Compound 87]”, the pKi is 7.37.
The same measure, in the same setting: with “Ac-Tyr-Arg-cyclo[hCys-Glu-His-D-Phe-Arg-Trp-hCys]-NH2 [Compound 197]” the figure was 6.61.
Same read-out and setting: with “cyclo[hCys-His-(4-F-D-Phe)-Arg-Trp-Cys]-NH2 [Compound 134]” the figure was 8.14.
“Ac-Tyr-Arg-cyclo[Cys-Glu-His-(4-F-D-Phe)-Arg-Trp-Cys]-NH2 [Compound 83]” had a pKi of 7.83.
As to “N-cyclopropanecarbonyl-cyclo[hCys-His-D-Phe-Arg-Trp-Cys]-NH2 [Compound 141]”, the pKi is 8.43.
In turn, “Ac-Tyr-Arg-cyclo[Cys-Asp-His-D-Phe-Arg-Trp-Cys]-NH2 [Compound 7]” gave a pKi of 7.38.
As for “N-phenylsulfonyl-Gly-cyclo[hCys-His-D-Phe-Arg-Trp-penicillamine]-NH2 [Compound 178]”, the negative logarithm of the Ki (pKi) was 7.98.
The same measure, in the same setting: with “Tyr-Arg-cyclo[Cys-Gly-His-D-Phe-Arg-Trp-Cys]-NH2 [Compound 11]” the figure was 6.90; with “D-Arg-cyclo[Cys-Glu-His-D-Phe-Arg-Trp-Cys]-NH2 [Compound 46]”, 7.18; with “Ac-Tyr-Arg-cyclo[Cys-Glu-His-D-Phe-Arg-Trp-Cys] alcohol [Compound 78]”, no more than 6.30.
On the same count and under the same terms, the same measure for “Ac-Tyr-D-Arg-cyclo[Cys-Glu-His-D-Phe-Arg-Trp-Cys]-NH2 [Compound 79]”: 7.35; for “Ac-Tyr-Arg-cyclo[Cys-Glu-(1-Me-D-His)-D-Phe-Arg-Trp-Cys]-NH2 [Compound 82]”: no more than 6.30.
As for “Ac-cyclo[Cys-Asp-His-D-Phe-Arg-Trp-Cys]-NH2 [Compound 6]”, the pKi is 6.53.
The same measure, in the same setting: the same measure for “Ac-cyclo[Cys-Leu-His-D-Phe-Arg-Trp-Cys]-NH2 [Compound 15]”: 7.08; for “Ac-Tyr-Arg-cyclo[hCys-His-D-Phe-Arg-Trp-Cys]-OH [Compound 165]”: 7.20.
The substance “Ac-Tyr-Cit-cyclo[Cys-Glu-His-D-Phe-Arg-Trp-Cys]-NH2 [Compound 124]” had a pKi of 6.48.
In the case of “Ac-cyclo[hCys-His-D-Phe-Arg-Trp-Cys]-OH [Compound 138]”, the pKi is 6.95.
“Ac-Tyr-Arg-cyclo[hCys-His-D-Phe-Arg-Trp-Cys]-NH2 [Compound 164]” showed a pKi of 8.04.
In the case of “Ac-Tyr-Arg-cyclo[Cys-Glu-(β-(thien-2-yl)-Ala)-D-Phe-Arg-Trp-Cys]-NH2 [Compound 111]”, the pKi was no more than 6.30.
Still for that read-out and setting: the same measure for “Ac-Tyr-Arg-cyclo[Cys-Glu-(3-Me-His)-D-Phe-Arg-Trp-Cys]-NH2 [Compound 96]”: 7.07.
“Ac-Tyr-Arg-cyclo[Cys-Trp-His-D-Phe-Arg-Trp-Cys]-NH2 [Compound 23]” had a pKi of 7.89.
On to “Ac-Tyr-Val-cyclo[Cys-Glu-His-D-Phe-Arg-Trp-Cys]-NH2 [Compound 130]”, for which the pKi was 6.64.
Turning to “Ac-Tyr-Arg-cyclo[Cys-Gly-His-D-Phe-Arg-Trp-Cys]-NH2 [Compound 12]”, the pKi was 6.92.
For “Ac-Tyr-Arg-cyclo[Cys-Glu-His-D-Phe-Arg-Trp-hCys]-NH2 [Compound 192]”, the pKi is no more than 6.30.
“Ac-Arg-cyclo[Cys-His-(4-Cl-D-Phe)-Arg-Trp-hCys]-NH2 [Compound 191]” showed a pKi of 8.38.
Regarding “Ac-D-Arg-cyclo[Cys-Cya-His-D-Phe-Arg-Trp-Cys]-NH2 [Compound 27]”, the pKi is 7.10.
Turning to “Ac-Arg-cyclo[hCys-His-D-Phe-Arg-Trp-Cys]-OH [Compound 159]”, the pKi is 7.71.
Consider “Ac-Cit-cyclo[Cys-Glu-(1-Me-His)-D-Phe-Arg-Trp-Cys]-NH2 [Compound 56]”, for which the pKi is no more than 6.30.
Substance “Ac-Tyr-Arg-cyclo[Cys-Gln-His-D-Phe-Arg-Trp-Cys]-OMe [Compound 10]” gave a pKi of 7.73.
The same measure, in the same setting: with “Ac-Tyr-Arg-cyclo[Cys-Glu-(β-(1,2,4-triazol-3-yl))-Ala)-D-Phe-Arg-Trp-Cys]-NH2 [Compound 106]” the figure was 6.50.
Regarding “5-guanidinovaleryl-cyclo[hCys-His-D-Phe-Arg-Trp-Cys]-NH2 [Compound 149]”, the negative logarithm of the Ki (pKi) was 9.00.
On to “Ac-cyclo(S—CH2—S)[Cys-His-D-Phe-Arg-Trp-Cys]-NH2 [Compound 198]”, for which the pKi was no more than 6.30.
With “Ac-Tyr-(1-β-hArg)-cyclo[Cys-Glu-His-D-Phe-Arg-Trp-Cys]-NH2 [Compound 127]”, the pKi was 7.77.
The same measure, in the same setting: with “Ac-Lys(ipr)-cyclo[Cys-Glu-His-D-Phe-Arg-Trp-Cys]-NH2 [Compound 59]” the figure was 7.13; with “Ac-Tyr-Arg-cyclo[Cys-Glu-His-(4-Br-D-Phe)-Arg-Trp-Cys]-NH2 [Compound 89]”, 8.60; with “Ac-Tyr-Arg-cyclo[Cys-Glu-(1-Me-D-His)-(4-F-D-Phe)-Arg-Trp-Cys]-NH2 [Compound 85]”, no more than 6.30.

The next test concerns the target human MC4R (Homo sapiens, UniProt P32245).
Experiment: not given
Particulars: read-out: MC4 Ki, HEK 293 cells.
On to “Ac-nLeu-cyclo[hCys-His-D-Phe-Arg-Trp-penicillamine]-NH2 [Compound 177]”, for which the pKi was 10.30.
With “Ac-diaminobutyryl-cyclo[Cys-Glu-His-D-Phe-Arg-Trp-Cys]-NH2 [Compound 44]”, the pKi is 9.02.
“4-phenylbutyryl-cyclo[hCys-His-D-Phe-Arg-Trp-penicillamine]-NH2 [Compound 174]”: the negative logarithm of the Ki (pKi) was 9.64.
Consider “Ac-diaminopropionyl-cyclo[Cys-Glu-His-D-Phe-Arg-Trp-Cys]-NH2 [Compound 43]”, for which the pKi is 8.97.
As for “Ac-Arg-cyclo[Cys-Glu-(1-Me-His)-(4-Cl-D-Phe)-Arg-Trp-Cys]-NH2 [Compound 87]”, the pKi is 8.95.
“N-phenylsulfonyl-Gly-cyclo[hCys-His-D-Phe-Arg-Trp-penicillamine]-NH2 [Compound 178]”: the pKi is 9.42.
